Reference: publication PMC9027337, “Influence of Experimental End Point on the Therapeutic Efficacy of Essential and Additional Antidotes in Organophosphorus Nerve Agent-Intoxicated Mice” (2022)

Tested on: lethal effects of soman in mice
Conditions: LD50 soman 6 h end point/24 h end point; atropine 10 mg/kg, HI-6 25 mg/kg i.m.

CN1[C@@H]2CC[C@H]1C[C@@H](OC(=O)C(CO)c1ccccc1)C2 (stereo partly shown)
Protective Ratio B: 1.00
